The values that follow come from ChEMBL document CHEMBL1127295, “Development of a model for the delta opioid receptor pharmacophore. 2. Conformationally restricted Phe3 replacements in the cyclic delta receptor selective tetrapeptide Tyr-c[D-Cys-Phe-D-Pen]OH (JOM-13)” (J Med Chem, 1994).

By UniProt entry, the sequences of proteins in these tests, tags left out.
UniProt P41143, whole entry, looked up: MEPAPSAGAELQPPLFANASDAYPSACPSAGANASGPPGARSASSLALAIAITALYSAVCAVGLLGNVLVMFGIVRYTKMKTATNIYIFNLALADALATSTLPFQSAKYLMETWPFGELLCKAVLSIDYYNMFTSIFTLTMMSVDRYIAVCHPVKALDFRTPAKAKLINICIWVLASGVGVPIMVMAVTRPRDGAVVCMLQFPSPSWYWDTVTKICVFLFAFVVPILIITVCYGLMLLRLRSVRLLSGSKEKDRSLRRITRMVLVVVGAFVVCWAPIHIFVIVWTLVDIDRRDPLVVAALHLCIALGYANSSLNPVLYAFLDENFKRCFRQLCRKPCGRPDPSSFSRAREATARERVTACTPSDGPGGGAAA
UniProt P35372, whole entry, looked up: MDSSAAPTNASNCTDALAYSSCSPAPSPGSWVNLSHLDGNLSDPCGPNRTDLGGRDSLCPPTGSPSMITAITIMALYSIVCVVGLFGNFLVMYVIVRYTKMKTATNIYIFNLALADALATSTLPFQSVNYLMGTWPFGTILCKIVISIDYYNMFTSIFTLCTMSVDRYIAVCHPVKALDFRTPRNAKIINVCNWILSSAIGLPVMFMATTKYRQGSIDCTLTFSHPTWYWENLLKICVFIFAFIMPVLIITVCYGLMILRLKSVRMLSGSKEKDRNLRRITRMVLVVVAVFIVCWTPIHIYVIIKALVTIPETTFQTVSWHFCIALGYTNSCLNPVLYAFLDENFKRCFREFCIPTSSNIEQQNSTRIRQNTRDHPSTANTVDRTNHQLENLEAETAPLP

Assay [1] concerns the target T1, Opioid receptors; mu & delta (Homo sapiens) (UniProt P41143+P35372). Nature of the assay: Ratio of IC50 value against mu receptor to that of delta receptor. The class given is protein assay.
Assay [2] addresses T1, Opioid receptors; mu & delta (Homo sapiens). Nature of the assay: Ratio of the Ki value towards mu receptor to that of delta receptor. Format: protein assay.

On to `CC1(C)SSC[C@H](NC(=O)[C@@H](N)Cc2ccc(O)cc2)C(=O)N[C@H](Cc2ccccc2)C(=O)N[C@@H]1C(=O)O` (stereo in doubt; 4), for which the results for the Ratio in assay [1] and in assay [2] were greater than 3090 and 2100, respectively.

For the compound `CC1(C)SSC[C@H](NC(=O)[C@@H](N)Cc2ccc(O)cc2)C(=O)N[C@H](Cc2ccccc2)C(=O)N[C@@H]1C(=O)O` (stereo in doubt; 3), the Ratio was 72 in assay [1] and 81 in assay [2].

On to `CC1(C)SSC[C@H](NC(=O)[C@@H](N)Cc2ccc(O)cc2)C(=O)N[C@H](Cc2ccccc2)C(=O)N[C@@H]1C(=O)O` (stereo in doubt; 5), for which the results for the Ratio in assay [1] and in assay [2] were 182 and 170, respectively.

As for `CC1(C)SSC[C@H](NC(=O)[C@@H](N)Cc2ccc(O)cc2)C(=O)N[C@@H](Cc2ccccc2)C(=O)N[C@@H]1C(=O)O`, the Ratio came out at 110 in assay [1] and 69 in assay [2].

Turning to `CC1(C)SSC[C@H](NC(=O)[C@@H](N)Cc2ccc(O)cc2)C(=O)N[C@H](Cc2ccccc2)C(=O)N[C@@H]1C(=O)O` (stereo in doubt; 6), the Ratio in assay [2] was determined as 36.
